Values of other authors as cited in patent US5246935A, “Piperazinyl derivatives and methods of treating central nervous system ailments relating to the 5-HT2 receptor system” (Novo Nordisk A/S, priority 1990, dated 1993).

Tested on: 5-HT2 receptor
Conditions: cited from earlier work

Q: For `Cc1nc2n(c(=O)c1CCN1CCC(c3noc4cc(F)ccc34)CC1)CCCC2` [Risperidone], which “affinity for / antagonism of 5-HT2 receptor (in words)” value is on record?
A: potent antagonist
